Measurements as given in paper PMC9386913, “CC-99677, a novel, oral, selective covalent MK2 inhibitor, sustainably reduces pro-inflammatory cytokine production” (Arthritis Research & Therapy, 2022).
Read-outs that look alike come from different tables or passages of the source.

Chains of the proteins cited; added tags and fusions are not shown.
UniProt P49137, whole entry: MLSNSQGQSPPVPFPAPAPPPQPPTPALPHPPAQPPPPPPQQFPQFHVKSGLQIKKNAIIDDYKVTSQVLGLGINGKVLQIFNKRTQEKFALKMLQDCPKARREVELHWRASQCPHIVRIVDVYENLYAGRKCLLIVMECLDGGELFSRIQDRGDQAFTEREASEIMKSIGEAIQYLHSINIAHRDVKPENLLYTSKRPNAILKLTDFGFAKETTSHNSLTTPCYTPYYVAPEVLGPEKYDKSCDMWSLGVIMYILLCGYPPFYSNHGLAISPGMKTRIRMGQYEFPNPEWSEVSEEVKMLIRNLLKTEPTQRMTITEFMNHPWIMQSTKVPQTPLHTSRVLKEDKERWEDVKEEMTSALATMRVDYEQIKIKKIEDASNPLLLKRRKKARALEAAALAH

Target: MK2 (Homo sapiens, UniProt P49137)

Structure (SMILES): CCOCc1cnc(Cl)nc1Oc1ccc2c(ccc3sc4c(c32)NC[C@@H](C)NC4=O)n1 [CC-99677]
- MK2 target engagement (150 mg): > 70%
- Average MK2 occupancy (120-mg dose cohort): approximately 70%
- Average MK2 occupancy (150-mg dose cohort): approximately 70%
- Average MK2 occupancy (day 8, 10-mg dose cohort): 28%
- Duration of MK2 occupancy after last dose (last dose day 14): stable until day 15 (1 day after the last dose) and returned to baseline levels 14 days after the last dose
